The target of this experiment is T1, muscarinic receptor (rat brain).
T1 construct: gene Chrm1; native receptors in particulate (40 000 g pellet) preparation of whole brain without cerebellum; subtype mixture not resolved
In words: [3H]NMS displacement, rat brain membranes, filtration. The experiment is classed as binding. The settings on record: [3H]NMS 0.3 nM (0.5 nM in data analysis), 30 mM Na+/HEPES pH 7.5, 25 °C, 60 min; competitive.

Broadly, the IC50 is the concentration needed to halve the response being measured.

Turning to `COc1ccc2c(c1)N(C[C@H](C)CN(C)C)c1ccccc1S2` [Levomepromazine], the IC50 is 394 nM. As for `CC(CN1c2ccccc2Sc2ccccc21)N(C)C` (stereo not shown) [Promethazine], the figure is 42.3 nM. As for `OC(CCN1CCCCC1)(c1ccccc1)C1CCCCC1` (stereo not shown) [Trihexyphenidyl], the figure is 10.4 nM; as for `OCCN1CCN(CCCN2c3ccccc3Sc3ccc(Cl)cc32)CC1` [Perphenazine], 7000 nM. As for `Cc1nccn1CCC(C(N)=O)(c1ccccc1)c1ccccc1` [Imidafenacin], the figure is 3.66 nM; as for `Fc1ccc([C@@H]2CCNC[C@H]2COc2ccc3c(c2)OCO3)cc1` [Paroxetine], 545 nM. As to `OCCOCCN1CCN(C(c2ccccc2)c2ccc(Cl)cc2)CC1` (stereo not shown) [Hydroxyzine], the 50% inhibitory concentration (IC50) amounted to 9120 nM. As for `CC(C)[N+](C)(CCOC(=O)C1c2ccccc2Oc2ccccc21)C(C)C` [Propantheline], the figure is 0.12 nM. On to `C=C[C@H]1CN2CC[C@H]1C[C@@H]2[C@@H](O)c1ccnc2ccc(OC)cc12` [Quinidine], for which the IC50 worked out at 44600 nM. The value for `CN(C)CC/C=C1/c2ccccc2COc2ccc(CC(=O)O)cc21` [Olopatadine] was 25100 nM.

The values above are taken from PMC11503540, “Development of a pharmacological evidence‐based anticholinergic burden scale for medications commonly used in older adults” (Geriatrics & Gerontology International, 2023).
